The target in the assay is T1, CD2 항원 (Jurkat T 세포 / T 림프구 표면) (UniProt P06729 25-351, limits assumed).
T1 construct: whole, on cells; also called CD2-positive Jurkat T 세포
T1 sequence (looked up): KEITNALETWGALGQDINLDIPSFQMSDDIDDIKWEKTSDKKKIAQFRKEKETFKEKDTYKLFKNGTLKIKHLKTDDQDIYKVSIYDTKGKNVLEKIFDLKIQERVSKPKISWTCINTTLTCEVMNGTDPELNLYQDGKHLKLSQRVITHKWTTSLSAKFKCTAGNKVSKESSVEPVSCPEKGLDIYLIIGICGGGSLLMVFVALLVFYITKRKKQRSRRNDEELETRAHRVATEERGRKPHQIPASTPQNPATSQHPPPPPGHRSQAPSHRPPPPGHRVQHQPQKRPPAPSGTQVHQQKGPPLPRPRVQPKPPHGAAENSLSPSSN
Nature of the assay: dual-binding assay: HER2 antigen coated, COS-7 medium, then Jurkat T cells, calcein AM fluorescence.

B1: anti-HER2 scFv-LFA3 (포유류 발현 시스템, COS-7 세포에서 발현) (other)
chain: FSQQIYGVVYGNVTFHVPSNVPLKEVLWKKQKDKVAELENSEFRAFSSFKNRVYLDTVSGSLTIYNLTSSDEDEYEMESPNITDTMKFFLYVLESGGGGSGGSGS[about 120 residues not listed]GGGGSGGGGSGGGSGDIQMTQSPSSLSASVGDRVTITCRASQDVNTAVAWYQQKPGKAPKLLIYSASFLYSGVPSRFSGSRSGTDFTLTISSLQPEDFATYYCQQHYTTPPTFGQGTKVEIKENLYFQGHHHHHH
notes: LFA3 is residues 29-123; Tested as unpurified, unquantified COS-7 culture medium (10x concentrate, neat, dilutions); Glycosylated; also called pCIneo-anti-HER2 scFv-LFA3 product
Take B1: the binding result was “binds”.

The values above are taken from patent KR20140021799A (dated 2014).
